Data from paper PMC8909805, “Anticancer Activity of (S)-5-Chloro-3-((3,5-dimethylphenyl)sulfonyl)-N-(1-oxo-1-((pyridin-4-ylmethyl)amino)propan-2-yl)-1H-indole-2-carboxamide (RS4690), a New Dishevelled 1 Inhibitor” (Cancers, 2022).

B1: peptide mimicking the C-terminal portion of TMEM88 (residues 153-159, TSGKVWV), dansylated at its N-terminus (peptide)
peptide: TSGKVWV
modifications: dansyl group covalently linked to its N-terminus
notes: C-terminal portion of TMEM88, residues 153 to 159
B2: DVL1 PDZ domain (domain or fragment)
chain: LNIVTVTLNMERHHFLGISIVGQSNDRGDGGIYIGSIMKGGAVAADGRIEPGDMLLQVNDVNFENMSNDDAVRVLREIVSQTGPISLTVAKCWDP

How the values were obtained:
Details in all cases: both partners purified
DVL1 PDZ domain = target: B2; test: other fluorescence titration; equilibrium binding in solution; 1 uM dansyl-peptide constant, DVL1 PDZ domain 2-38 uM; FRET emission (excitation 280 nm, fitted at 540 nm), hyperbolic fit; sodium phosphate 50 mM, DMSO 20% v/v, pH 7.2, 25 °C; no compound
[1] = target: B1; test: other fluorescence titration; as a1, in the presence of a constant 1 uM of the small molecule (S)-1
[2] = target: B1; test: other fluorescence titration; as a1, in the presence of a constant 1 uM of the small molecule (R)-1

Kd (DVL1 PDZ domain) [µM] | Kd in the presence of 1 µM of the small-molecule inhibitor (S)-1 [1] [µM] | Kd in the presence of 1 µM of the small molecule (R)-1 [2] [µM] | Binder
11.5 ± 0.5 | – | – | B1
– | 20.8 ± 0.5 | 12.3 ± 0.6 | B2
